Source: ChEMBL document CHEMBL1156441, “Mechanism of inactivation of plasminogen activator inhibitor-1 by a small molecule inhibitor” (J Biol Chem, 2007)

Amino acid sequences for entries named in this document (tags omitted).
UniProt P05121, whole entry: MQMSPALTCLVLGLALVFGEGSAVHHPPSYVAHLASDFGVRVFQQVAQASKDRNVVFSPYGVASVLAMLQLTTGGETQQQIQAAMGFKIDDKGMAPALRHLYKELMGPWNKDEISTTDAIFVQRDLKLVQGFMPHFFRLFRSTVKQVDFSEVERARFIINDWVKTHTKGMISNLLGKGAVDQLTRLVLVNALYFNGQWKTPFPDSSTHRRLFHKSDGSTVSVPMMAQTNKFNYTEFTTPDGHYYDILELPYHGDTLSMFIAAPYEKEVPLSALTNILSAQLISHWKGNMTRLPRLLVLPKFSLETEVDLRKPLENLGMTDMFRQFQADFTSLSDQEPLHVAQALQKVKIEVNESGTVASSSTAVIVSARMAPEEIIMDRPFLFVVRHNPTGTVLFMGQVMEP

How the values were obtained:
[1] = target: T1, Plasminogen activator inhibitor 1 (Homo sapiens, UniProt P05121); experiment: Inhibition of human non-glycosylated PAI1 using tissue type plasminogen activator substrate by direct chromogenic assay
[2] = target: T1, Plasminogen activator inhibitor 1; experiment: Inhibition of human non-glycosylated PAI1 using urokinase type plasminogen activator substrate by direct chromogenic assay
[3] = target: T1, Plasminogen activator inhibitor 1; experiment: Inhibition of human glycosylated PAI1 using tissue type plasminogen activator substrate by direct chromogenic assay
[4] = target: T1, Plasminogen activator inhibitor 1; experiment: Inhibition of human glycosylated PAI1 using urokinase type plasminogen activator substrate by direct chromogenic assay
[5] = target: T1, Plasminogen activator inhibitor 1; experiment: Binding affinity to human immobilized PAI1 by surface plasmon resonance
[6] = target: T1, Plasminogen activator inhibitor 1; experiment: Inhibition of vitronectin binding to human PAI1

## O=C(O)C(=O)c1cn(Cc2ccccc2)c2ccc(-c3ccc(OC(F)(F)F)cc3)cc12 [TIPLASININ]
[1]
  IC50: 11.4 µM
[2]
  IC50: 9.7 µM
[3]
  IC50: 12.3 µM
[4]
  IC50: 8.8 µM
[5]
  Kd: 15 µM
[6]
  IC50: 13 µM
